Values of other authors, collected in patent publication US10449216B2, “Modulating drug effects against metabotropic glutamate receptor with extracellular calcium” (GEORGIA STATE UNIVERSITY RESEARCH FOUNDATION, INC., priority 2013, dated 2019).

The chains behind the UniProt entries cited, without tags or fusion partners. Residues count along the entry.
UniProt Q13255, 19-1194 limits assumed: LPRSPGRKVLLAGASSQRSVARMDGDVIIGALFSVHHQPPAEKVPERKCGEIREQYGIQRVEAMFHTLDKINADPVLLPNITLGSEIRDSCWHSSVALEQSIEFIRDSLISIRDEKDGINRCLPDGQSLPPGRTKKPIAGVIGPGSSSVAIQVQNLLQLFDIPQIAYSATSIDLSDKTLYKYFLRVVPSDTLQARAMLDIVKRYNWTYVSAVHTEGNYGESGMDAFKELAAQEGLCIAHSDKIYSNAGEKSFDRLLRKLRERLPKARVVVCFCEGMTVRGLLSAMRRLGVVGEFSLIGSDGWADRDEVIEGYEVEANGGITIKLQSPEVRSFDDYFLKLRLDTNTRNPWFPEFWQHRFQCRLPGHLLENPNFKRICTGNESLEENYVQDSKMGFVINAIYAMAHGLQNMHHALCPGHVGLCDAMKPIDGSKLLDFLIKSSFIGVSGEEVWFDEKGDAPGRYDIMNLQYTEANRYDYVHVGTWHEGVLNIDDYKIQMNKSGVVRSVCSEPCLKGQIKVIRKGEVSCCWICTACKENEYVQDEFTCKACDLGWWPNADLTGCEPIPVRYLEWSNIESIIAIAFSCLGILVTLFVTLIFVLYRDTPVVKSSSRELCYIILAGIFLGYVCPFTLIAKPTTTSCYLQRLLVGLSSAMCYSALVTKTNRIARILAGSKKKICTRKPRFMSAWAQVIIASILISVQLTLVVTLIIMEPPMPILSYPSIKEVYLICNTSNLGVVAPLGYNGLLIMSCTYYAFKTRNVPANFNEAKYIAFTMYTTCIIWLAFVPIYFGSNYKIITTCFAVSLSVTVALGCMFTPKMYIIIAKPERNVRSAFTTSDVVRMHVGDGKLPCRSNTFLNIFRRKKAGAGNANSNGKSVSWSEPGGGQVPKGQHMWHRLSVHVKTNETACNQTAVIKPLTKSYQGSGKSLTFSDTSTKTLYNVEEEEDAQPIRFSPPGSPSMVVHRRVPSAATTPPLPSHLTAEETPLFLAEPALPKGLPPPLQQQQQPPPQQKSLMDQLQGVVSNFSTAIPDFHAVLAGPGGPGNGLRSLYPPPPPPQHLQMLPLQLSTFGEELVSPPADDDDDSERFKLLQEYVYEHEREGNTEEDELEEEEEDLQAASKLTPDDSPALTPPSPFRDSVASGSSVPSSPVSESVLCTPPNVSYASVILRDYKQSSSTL
UniProt P31424, 21-1203 limits assumed: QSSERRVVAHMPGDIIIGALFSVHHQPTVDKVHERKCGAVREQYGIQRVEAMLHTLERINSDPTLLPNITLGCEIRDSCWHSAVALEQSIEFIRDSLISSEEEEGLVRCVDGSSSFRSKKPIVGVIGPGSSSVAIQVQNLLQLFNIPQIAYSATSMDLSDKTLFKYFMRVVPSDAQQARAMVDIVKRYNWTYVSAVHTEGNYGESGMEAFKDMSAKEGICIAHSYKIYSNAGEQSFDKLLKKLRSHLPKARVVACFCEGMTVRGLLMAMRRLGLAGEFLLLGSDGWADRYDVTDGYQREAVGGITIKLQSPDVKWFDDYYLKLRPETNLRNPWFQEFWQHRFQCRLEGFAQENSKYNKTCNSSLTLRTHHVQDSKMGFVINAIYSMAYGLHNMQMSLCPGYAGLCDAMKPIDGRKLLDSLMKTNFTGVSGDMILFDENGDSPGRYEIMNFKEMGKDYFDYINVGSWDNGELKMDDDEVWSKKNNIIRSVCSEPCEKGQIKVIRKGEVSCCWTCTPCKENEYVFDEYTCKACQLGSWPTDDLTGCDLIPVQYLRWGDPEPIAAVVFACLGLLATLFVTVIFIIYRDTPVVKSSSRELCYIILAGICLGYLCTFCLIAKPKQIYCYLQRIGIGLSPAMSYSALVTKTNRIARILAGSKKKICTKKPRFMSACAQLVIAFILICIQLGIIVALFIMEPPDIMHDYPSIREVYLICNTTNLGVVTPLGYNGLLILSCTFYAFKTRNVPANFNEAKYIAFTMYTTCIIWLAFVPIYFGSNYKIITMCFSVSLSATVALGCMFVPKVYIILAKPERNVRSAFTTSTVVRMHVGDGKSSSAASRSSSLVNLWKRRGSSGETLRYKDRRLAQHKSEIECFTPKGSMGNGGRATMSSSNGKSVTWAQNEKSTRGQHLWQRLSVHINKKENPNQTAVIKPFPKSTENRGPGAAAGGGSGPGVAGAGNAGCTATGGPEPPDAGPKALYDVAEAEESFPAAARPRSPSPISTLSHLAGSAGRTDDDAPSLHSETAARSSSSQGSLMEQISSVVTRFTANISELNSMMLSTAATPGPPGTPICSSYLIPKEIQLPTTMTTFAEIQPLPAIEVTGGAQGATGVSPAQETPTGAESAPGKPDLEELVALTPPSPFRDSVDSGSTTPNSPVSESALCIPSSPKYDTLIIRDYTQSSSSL
UniProt P41594, 21-1212 limits assumed: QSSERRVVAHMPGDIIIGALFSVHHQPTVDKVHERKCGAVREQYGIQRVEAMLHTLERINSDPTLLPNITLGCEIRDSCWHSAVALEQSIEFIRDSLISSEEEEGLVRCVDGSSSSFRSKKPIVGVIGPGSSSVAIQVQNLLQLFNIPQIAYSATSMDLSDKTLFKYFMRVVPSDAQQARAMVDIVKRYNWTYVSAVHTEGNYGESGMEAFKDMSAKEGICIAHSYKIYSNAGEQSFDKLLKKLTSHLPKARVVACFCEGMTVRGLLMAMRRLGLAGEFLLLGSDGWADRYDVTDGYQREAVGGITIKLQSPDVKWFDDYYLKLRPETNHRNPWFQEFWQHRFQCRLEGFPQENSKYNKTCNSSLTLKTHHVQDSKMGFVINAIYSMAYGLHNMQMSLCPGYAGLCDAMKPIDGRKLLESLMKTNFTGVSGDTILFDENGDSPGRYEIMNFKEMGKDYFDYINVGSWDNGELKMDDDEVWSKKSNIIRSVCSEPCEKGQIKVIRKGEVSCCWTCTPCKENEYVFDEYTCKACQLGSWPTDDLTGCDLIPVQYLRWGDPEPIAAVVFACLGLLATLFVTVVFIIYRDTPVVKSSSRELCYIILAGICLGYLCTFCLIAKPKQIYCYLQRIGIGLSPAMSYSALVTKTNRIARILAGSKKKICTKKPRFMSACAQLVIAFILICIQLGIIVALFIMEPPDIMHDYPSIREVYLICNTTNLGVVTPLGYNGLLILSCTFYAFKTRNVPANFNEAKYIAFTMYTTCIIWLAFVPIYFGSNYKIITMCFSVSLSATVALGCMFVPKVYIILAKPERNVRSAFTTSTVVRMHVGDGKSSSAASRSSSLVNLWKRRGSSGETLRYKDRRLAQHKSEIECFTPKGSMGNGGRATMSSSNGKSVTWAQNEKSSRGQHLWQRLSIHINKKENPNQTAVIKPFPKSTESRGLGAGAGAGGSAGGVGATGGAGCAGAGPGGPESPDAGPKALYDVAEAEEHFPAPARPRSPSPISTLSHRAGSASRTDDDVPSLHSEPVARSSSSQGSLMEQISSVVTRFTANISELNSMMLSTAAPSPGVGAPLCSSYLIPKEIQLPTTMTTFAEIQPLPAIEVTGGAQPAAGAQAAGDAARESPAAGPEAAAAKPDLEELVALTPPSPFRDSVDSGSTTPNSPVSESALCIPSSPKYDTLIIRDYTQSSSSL
UniProt P23385, 19-1199 limits assumed: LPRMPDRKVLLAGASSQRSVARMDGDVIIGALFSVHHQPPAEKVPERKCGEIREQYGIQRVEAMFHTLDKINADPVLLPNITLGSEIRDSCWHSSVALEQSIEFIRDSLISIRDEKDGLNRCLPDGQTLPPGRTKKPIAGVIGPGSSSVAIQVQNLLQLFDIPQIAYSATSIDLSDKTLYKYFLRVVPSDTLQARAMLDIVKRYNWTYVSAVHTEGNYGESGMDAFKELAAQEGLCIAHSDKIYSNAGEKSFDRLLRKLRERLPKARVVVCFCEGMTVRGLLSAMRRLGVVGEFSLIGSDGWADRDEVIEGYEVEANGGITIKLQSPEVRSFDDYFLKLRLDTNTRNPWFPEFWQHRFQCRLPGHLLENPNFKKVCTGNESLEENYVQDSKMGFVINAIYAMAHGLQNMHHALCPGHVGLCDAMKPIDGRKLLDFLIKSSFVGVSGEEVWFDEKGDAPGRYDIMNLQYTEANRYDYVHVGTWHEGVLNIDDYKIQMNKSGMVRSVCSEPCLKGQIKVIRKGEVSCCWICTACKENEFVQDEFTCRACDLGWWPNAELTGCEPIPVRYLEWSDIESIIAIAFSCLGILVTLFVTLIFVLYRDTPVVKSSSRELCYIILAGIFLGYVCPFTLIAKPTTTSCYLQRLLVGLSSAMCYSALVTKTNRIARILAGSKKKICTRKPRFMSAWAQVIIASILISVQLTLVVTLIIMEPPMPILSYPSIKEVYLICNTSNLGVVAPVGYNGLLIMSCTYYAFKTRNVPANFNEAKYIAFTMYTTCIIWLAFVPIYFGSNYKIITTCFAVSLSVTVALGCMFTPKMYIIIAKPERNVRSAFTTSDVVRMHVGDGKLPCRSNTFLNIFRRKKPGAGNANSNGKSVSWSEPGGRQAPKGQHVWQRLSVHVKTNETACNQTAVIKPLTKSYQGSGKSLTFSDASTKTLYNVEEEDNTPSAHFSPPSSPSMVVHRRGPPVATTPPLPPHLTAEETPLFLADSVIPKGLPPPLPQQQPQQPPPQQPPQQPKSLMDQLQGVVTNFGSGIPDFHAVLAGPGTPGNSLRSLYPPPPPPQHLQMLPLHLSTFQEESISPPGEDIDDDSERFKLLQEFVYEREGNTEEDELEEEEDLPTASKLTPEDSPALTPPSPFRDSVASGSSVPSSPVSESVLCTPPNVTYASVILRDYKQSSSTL

How the values were obtained:
mGluR1 [1] = target: mGluR1 (Homo sapiens, UniProt Q13255); conditions: mGluR1, Sp. Hs; tested as the radiolabelled form; cited from earlier work
mGluR5 [2] = target: mGluR5 (Rattus norvegicus, UniProt P31424); conditions: mGluR5, Sp. Rn; tested as the radiolabelled form; cited from earlier work
mGluR5 [3] = target: mGluR5 (Homo sapiens, UniProt P41594); conditions: mGluR5, Sp. Hs; tested as the radiolabelled form; cited from earlier work
mGluR1 [4] = target: mGluR1 (Rattus norvegicus, UniProt P23385); conditions: mGluR1, Sp. Rn; tested as the radiolabelled form; cited from earlier work

For `O=C(Cc1ccccc1)c1ccc2nc3c(cc2c1)CCCO3` [R214127], the “Affinity (pKd)” value (mGluR1 [1]) is given as 9 pKd.

For `CN1CC(=O)N=C1NC(=O)Nc1cccc(Cl)c1`, the “Affinity (pKd)” value (mGluR5 [2]) is given as 7.3 pKd and the “Affinity (pKd)” value (mGluR5 [3]) is given as 7.5 pKd.

In the case of `CCn1c(C)nc(N2CCc3ccccc3CC2)c(C#N)c1=O` [EM-TBPC], the “Affinity (pKd)” value (mGluR1 [4]) is given as 8.2 pKd.
